Test results: patent US20250263424A1, “KRAS INHIBITORS” (Bristol-Myers Squibb Company, priority 2022, published 2025)

Chains of the proteins cited; added tags and fusions are not shown. Residues count along the entry.
UniProt P01116, 1-188 isoform 2 G12C: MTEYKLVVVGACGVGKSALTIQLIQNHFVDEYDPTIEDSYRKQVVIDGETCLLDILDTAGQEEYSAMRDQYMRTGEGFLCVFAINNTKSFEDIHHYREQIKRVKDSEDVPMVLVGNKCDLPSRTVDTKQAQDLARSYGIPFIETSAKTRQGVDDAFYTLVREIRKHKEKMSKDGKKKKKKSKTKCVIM

Molecular target: Recombinant GMPPNP-loaded KRAS G12C (KRAS-G12C(ON), active form) (Homo sapiens, UniProt P01116, G12C)
Assay: KRAS G12C RAF Disruption Assay (HTRF)
Conditions: read-out: KRASG12C RAF Disruption Assay (IC50), GMPPNP-loaded KRAS G12C 5 nM, GST-RAF1 RBD 9 nM, values in nM
Method: This is a functional assay that measures activity of compounds against KRAS-G12C^(ON), i.e., the active form of KRAS G12C. Recombinant GMPPNP-loaded KRAS G12C (5 nM) was treated with compound at room temperature for 20 minutes in assay buffer (50 mM Tris pH 7.5, 100 mM NaCl, 1 mM MgCl2, 1 mM DTT, 100 μg/ml BSA). Recombinant GST-RAF1 RBD (9 nM) was added, and the reaction mixture was incubated for 20 minutes. SA-Tb (0.25 nM) was added, and the reaction mixture was incubated for 3 hours. HTRF signal was measured (PerkinElmer Envision), the signal ratio (λem 520/λem 495) was calculated, and IC50 values were calculated from the dose-response curve.

Q: Which IC50 does the source give for `CN1CCC[C@H]1COc1nc(N2CCN(C(=O)/C(F)=C/c3ncccn3)[C@@H](CC#N)C2)c2ccc(-c3cc(O)cc4ccccc34)c(F)c2n1` here?
A: The IC50 was 10 nM.

Q: For `CN1CCC[C@H]1COc1nc(N2CCN(C(=O)/C(F)=C/c3ccccn3)[C@@H](CC#N)C2)c2ccc(-c3c(O)cccc3F)c(F)c2n1`, which IC50 is on record?
A: Its IC50 is 200 nM.
